From paper PMC3577903, “Staphylococcus aureus FepA and FepB Proteins Drive Heme Iron Utilization in Escherichia coli” (PLoS ONE, 2013)

The chains behind the UniProt entries cited, without tags or fusion partners.
UniProt Q2G130, entry or part of it: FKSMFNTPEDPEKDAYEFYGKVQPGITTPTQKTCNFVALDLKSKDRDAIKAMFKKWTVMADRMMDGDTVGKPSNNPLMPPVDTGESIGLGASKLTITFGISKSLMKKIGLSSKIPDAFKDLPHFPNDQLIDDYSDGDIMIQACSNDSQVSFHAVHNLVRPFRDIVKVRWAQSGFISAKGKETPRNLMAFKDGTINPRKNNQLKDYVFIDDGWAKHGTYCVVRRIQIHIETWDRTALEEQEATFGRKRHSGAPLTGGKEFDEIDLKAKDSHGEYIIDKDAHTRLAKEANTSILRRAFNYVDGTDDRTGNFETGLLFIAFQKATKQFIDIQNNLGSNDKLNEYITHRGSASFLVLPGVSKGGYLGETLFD

Biological target: FepB (FepB-6His, apo-FepB) (Staphylococcus aureus, UniProt Q2G130)
Assay: biochemical
Parameters: gene SAOUHSC_00326

C=CC1=C(C)C2=Cc3c(C=C)c(C)c4[n]3[Fe]([Cl])[n]3c(c(C)c(CCC(=O)O)c3=CC3=NC(=C4)C(C)=C3CCC(=O)O)=CC1=N2 [hemin]
Kd: 13.3 ± 2.7 nM
